Data as given in patent publication US9266878B2, “Phosphatidylinositol 3-kinase inhibitors” (Gilead Calistoga LLC, priority 2012, dated 2016).
Like-named read-outs stand apart in the source and are kept apart here.

By UniProt entry, the sequences of proteins in these tests, tags left out. Where a name states a change or a piece, a line headed by the entry shows the natural chain unless it says otherwise.
UniProt P42338, whole entry: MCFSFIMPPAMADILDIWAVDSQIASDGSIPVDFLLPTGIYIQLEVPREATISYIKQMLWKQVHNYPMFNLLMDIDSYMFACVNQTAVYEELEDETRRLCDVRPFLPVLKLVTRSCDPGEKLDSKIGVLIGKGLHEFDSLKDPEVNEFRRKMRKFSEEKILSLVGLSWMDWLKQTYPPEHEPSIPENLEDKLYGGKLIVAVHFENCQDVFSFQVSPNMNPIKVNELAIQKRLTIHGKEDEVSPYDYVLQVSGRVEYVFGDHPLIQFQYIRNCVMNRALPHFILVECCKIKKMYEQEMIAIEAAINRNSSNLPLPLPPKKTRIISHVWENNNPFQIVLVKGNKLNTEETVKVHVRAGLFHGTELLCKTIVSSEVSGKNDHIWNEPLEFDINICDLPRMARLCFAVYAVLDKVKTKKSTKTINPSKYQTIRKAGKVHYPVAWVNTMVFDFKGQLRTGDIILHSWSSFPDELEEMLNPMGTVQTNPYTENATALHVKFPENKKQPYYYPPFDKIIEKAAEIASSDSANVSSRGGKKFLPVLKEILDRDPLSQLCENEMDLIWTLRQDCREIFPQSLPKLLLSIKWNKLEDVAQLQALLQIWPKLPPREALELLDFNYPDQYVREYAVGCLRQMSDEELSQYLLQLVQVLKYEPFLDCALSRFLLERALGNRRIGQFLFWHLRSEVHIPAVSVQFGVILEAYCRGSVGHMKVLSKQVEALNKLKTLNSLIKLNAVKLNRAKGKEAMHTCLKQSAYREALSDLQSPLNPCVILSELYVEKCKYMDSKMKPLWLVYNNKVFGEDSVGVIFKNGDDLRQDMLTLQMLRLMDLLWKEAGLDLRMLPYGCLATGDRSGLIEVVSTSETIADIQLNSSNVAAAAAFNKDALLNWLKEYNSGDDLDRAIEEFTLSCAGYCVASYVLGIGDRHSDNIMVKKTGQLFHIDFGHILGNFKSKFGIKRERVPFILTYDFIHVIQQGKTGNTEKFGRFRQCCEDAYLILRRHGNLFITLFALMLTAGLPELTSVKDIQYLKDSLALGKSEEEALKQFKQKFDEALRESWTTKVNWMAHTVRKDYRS
UniProt O00329, whole entry: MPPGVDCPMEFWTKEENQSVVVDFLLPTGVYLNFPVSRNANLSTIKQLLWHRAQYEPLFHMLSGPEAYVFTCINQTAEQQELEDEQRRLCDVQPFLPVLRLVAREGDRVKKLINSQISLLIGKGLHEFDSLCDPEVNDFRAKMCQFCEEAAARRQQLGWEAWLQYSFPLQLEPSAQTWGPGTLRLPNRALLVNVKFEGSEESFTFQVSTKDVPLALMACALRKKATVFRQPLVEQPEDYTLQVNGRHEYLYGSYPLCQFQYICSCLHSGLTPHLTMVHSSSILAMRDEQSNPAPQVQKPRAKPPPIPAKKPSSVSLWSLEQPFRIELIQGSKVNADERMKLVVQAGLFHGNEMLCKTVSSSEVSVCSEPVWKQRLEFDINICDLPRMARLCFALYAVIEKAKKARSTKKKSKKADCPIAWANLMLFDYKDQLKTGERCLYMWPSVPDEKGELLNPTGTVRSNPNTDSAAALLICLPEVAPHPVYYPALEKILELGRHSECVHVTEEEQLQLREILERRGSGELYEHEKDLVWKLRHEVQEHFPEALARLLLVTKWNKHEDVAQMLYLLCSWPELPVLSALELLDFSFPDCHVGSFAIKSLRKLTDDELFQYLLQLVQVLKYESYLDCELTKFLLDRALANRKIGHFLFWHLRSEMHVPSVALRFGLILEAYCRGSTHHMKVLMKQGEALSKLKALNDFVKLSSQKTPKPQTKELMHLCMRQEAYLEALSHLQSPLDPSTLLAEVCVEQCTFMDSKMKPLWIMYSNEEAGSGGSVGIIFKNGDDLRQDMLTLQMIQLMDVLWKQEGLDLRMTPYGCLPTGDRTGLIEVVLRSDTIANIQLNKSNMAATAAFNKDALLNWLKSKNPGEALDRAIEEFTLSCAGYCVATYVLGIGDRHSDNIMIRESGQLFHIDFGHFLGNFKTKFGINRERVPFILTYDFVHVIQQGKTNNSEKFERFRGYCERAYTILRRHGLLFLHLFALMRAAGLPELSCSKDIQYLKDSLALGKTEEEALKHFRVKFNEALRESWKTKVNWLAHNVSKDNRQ
UniProt P42336, whole entry: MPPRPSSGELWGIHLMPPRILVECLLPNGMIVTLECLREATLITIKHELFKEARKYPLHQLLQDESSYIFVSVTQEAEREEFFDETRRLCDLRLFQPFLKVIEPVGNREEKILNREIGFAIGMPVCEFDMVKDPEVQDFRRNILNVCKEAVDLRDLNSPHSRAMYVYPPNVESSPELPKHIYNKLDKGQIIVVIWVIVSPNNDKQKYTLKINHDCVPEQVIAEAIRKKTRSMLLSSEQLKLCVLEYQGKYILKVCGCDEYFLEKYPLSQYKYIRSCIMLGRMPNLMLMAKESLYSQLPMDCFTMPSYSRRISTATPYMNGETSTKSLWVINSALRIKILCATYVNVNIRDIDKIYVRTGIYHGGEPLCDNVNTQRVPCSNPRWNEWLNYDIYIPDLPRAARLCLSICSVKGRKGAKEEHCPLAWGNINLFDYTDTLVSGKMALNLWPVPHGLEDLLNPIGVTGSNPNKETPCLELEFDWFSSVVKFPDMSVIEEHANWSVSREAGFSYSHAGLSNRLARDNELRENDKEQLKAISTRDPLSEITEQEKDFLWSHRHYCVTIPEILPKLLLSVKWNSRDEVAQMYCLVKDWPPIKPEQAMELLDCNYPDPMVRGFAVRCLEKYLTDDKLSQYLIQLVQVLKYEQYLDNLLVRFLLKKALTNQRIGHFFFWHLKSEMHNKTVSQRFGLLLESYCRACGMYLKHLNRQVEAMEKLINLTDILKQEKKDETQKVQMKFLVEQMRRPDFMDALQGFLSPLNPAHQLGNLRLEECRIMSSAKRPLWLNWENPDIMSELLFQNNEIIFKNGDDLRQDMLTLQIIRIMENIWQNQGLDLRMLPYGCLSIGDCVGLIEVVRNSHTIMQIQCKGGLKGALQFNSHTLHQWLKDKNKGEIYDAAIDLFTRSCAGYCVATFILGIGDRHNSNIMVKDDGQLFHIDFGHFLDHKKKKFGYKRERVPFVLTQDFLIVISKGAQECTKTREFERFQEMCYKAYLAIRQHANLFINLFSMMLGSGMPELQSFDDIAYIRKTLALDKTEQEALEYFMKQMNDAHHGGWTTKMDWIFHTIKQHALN
UniProt P48736, whole entry: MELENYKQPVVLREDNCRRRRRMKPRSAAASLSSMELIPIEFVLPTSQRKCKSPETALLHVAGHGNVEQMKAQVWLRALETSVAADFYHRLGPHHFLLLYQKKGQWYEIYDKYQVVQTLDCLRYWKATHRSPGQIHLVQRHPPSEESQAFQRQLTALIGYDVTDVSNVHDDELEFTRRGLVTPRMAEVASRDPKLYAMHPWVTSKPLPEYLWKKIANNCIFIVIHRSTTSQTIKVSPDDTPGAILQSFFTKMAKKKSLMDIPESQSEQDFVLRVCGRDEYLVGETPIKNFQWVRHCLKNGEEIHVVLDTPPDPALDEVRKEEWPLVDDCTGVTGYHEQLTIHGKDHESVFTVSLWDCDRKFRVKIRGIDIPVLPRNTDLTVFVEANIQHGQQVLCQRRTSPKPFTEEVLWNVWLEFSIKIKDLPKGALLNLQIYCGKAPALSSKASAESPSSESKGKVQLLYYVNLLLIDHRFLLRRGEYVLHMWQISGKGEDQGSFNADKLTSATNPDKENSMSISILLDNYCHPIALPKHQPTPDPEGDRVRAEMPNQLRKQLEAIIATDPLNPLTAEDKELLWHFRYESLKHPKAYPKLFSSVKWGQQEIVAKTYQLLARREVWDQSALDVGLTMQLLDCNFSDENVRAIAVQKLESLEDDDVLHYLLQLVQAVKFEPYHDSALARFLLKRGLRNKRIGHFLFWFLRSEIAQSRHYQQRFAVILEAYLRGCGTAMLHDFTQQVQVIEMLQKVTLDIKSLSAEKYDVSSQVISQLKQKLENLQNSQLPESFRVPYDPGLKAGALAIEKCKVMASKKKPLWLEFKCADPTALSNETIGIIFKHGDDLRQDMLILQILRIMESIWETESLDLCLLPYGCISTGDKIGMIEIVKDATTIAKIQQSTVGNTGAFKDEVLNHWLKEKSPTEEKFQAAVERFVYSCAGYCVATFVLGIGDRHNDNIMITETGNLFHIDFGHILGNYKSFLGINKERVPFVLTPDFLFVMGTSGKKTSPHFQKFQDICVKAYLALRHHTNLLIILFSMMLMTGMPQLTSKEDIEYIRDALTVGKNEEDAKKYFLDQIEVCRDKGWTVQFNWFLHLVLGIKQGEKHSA
UniProt P27986, whole entry partner: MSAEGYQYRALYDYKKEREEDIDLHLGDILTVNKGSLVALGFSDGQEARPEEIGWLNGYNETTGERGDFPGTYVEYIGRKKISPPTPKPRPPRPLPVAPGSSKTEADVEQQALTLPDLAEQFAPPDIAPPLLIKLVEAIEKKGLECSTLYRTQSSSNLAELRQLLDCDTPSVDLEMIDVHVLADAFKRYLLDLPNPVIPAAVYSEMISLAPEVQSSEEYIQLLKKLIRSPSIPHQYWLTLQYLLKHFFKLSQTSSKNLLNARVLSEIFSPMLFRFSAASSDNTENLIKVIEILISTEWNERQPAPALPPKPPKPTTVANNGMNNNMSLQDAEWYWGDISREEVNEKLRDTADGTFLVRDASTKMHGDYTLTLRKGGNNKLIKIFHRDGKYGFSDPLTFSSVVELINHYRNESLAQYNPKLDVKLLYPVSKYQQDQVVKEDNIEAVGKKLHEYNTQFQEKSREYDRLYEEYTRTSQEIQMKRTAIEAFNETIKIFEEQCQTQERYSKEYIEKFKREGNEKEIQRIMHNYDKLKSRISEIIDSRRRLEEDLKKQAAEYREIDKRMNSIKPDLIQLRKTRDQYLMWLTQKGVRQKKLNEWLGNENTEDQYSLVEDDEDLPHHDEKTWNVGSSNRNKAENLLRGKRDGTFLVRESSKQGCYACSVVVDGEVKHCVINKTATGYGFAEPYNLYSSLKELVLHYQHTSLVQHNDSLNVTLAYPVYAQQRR
UniProt Q8WYR1, whole entry partner: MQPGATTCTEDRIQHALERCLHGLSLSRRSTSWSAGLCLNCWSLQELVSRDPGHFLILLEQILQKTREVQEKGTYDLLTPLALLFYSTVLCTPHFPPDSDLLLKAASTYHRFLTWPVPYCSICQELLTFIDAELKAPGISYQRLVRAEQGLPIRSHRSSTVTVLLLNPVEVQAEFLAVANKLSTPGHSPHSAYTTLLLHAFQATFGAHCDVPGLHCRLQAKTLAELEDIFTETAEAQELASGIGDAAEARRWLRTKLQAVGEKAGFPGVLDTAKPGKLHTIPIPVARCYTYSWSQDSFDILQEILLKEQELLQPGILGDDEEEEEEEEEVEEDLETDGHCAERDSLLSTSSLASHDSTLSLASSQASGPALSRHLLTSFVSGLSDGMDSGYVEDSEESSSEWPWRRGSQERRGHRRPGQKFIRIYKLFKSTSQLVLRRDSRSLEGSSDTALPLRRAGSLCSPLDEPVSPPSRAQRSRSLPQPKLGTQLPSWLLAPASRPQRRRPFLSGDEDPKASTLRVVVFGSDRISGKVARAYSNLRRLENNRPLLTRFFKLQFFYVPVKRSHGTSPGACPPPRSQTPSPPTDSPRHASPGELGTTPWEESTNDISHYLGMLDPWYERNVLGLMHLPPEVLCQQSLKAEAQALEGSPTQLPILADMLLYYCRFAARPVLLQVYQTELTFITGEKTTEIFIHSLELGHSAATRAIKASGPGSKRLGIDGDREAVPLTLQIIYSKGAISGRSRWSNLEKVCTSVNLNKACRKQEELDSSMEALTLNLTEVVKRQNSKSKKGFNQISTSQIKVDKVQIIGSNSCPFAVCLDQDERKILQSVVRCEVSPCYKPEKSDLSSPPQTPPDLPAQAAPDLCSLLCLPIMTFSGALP

Experiments:
Test in all cases: Enzymatic activity of PI3K isoforms, TR-FRET assay (PIP3 formation)
PI3Kβ = PI3Kβ (Homo sapiens (Human), UniProt P42338); conditions: read-out: IC50-PIP-β, bound given in nM
PI3Kδ = PI3Kδ (Homo sapiens (Human), UniProt O00329); conditions: read-out: IC50-PIP-δ, bound given in nM
PI3Kα = PI3Kα (Homo sapiens (Human), UniProt P42336)
PI3Kγ = PI3Kγ (Homo sapiens (Human), UniProt P48736); conditions: read-out: IC50-PIP-γ, bound given in nM

IC50 (PI3Kβ) [nM]	IC50 (PI3Kδ) [nM]	IC50 (PI3Kα; read-out: IC50-PIP-α, bound given in nM) [nM]	IC50 (PI3Kγ) [nM]	IC50 (PI3Kα; read-out: IC50-PIP-α, bound given in uM) [nM]	SMILES
< 100	< 100	< 100	< 100	–	COc1cccnc1C#Cc1c(N)ncnc1N[C@@H](C)c1nc2cccc(Cl)c2c(=O)n1-c1cc(F)cc(F)c1
< 100	< 100	–	–	> 1000	C[C@H](Nc1ncnc(N)c1C#Cc1ncccc1F)c1nc2cccc(Cl)c2c(=O)n1-c1cc(F)cc(F)c1
